Reference: PubChem BioAssay AID2014 (Sanford-Burnham Center for Chemical Genomics, 2009)
The list shows a part of the results, in another mix than the full data. Some salts and complexes are drawn in separate pieces, as the source files them; their charges need not balance. Calls of active or inactive are those of the source. The rule behind the calls is not given here.

Protein sequences, listed by entry. Tags and fused reporters are not part of them.
UniProt P11940, whole entry: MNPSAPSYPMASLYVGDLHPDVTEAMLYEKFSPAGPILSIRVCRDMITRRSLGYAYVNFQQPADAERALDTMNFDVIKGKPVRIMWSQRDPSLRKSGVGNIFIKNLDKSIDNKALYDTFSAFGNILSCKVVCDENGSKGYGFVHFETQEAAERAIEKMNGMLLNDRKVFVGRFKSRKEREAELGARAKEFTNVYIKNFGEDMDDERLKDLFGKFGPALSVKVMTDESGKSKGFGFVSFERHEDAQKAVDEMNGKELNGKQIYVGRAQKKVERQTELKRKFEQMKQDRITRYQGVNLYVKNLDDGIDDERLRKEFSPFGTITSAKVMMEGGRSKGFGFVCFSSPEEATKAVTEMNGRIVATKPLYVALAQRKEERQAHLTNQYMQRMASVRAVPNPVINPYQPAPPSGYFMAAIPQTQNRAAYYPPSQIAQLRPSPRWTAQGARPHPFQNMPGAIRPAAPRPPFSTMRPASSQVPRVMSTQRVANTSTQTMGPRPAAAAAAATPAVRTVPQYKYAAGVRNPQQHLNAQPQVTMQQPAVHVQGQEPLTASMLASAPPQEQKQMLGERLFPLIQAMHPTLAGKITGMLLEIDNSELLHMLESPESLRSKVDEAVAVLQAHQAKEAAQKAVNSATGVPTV

Each compound was assayed against Polyadenylate-binding protein 1 (Homo sapiens) (UniProt P11940) (assay: PABP poly(A) RNA binding inhibitors, primary screen, biochemical, fluorescence polarization, uHTS (AID 2014)). Settings: at 35 µM, active compounds read high.

How did the inhibition turn out when CCOC(=O)C(CC)C1=NC(C)(C)Cc2ccccc21.O=[N+]([O-])c1cc([N+](=O)[O-])c(O)c([N+](=O)[O-])c1 (stereo not drawn) was run?
The inhibition was inactive: -4.7%.

O=C(/C=C/c1ccccc1)OC1CN2CCC1CC2 (stereo not drawn) was tested. Which inhibition did it give?
The inhibition was inactive: 8.2%.

Which inhibition does the source give for CN1CCCCC1COC(=O)C1(O)c2ccccc2CCc2ccccc21 (stereo not drawn) here?
Its inhibition is inactive: -8.1%.

COc1ccccc1OP(C)(=O)Nc1c(C)cccc1C (stereo not drawn) was tested. Which inhibition did it give?
Its inhibition is inactive: -3.1%.

For O=P1(Nc2ncccn2)COc2ccccc2OC1, which inhibition is on record?
Its inhibition is inactive: 17%.

For CCCOc1ccc(NP(C)(=O)Oc2ccc(Cl)cc2)cc1 (stereo not drawn), which inhibition is on record?
Its inhibition is inactive: -9.2%.

For CP(=O)(Nc1ccc(SC(F)(F)F)cc1)Oc1ccccc1 (stereo not drawn), which inhibition is on record?
The inhibition was inactive: 3.9%.

How did the inhibition turn out when Nc1cccc([As](=O)(O)c2ccccc2)c1 was run?
Its inhibition is inactive: 8.5%.

Which inhibition does the source give for O=[As](O)(c1cccs1)c1cccs1 here?
Its inhibition is inactive: 1.3%.

With Cc1ccc(OCC(=O)OC2CN3CCC2CC3)cc1 (stereo not drawn) as the compound, how does the inhibition read?
Its inhibition is inactive: 11%.

With O=P1(Nc2ccc(Br)cn2)COc2ccccc2OC1 as the compound, how does the inhibition read?
The inhibition was inactive: 3.7%.

O=C(O)c1cccc(Nc2c([N+](=O)[O-])cc([N+](=O)[O-])cc2[N+](=O)[O-])c1 was tested. Which inhibition did it give?
Its inhibition is inactive: 5.6%.

Which inhibition does the source give for CCOP1(=S)c2c(C)nn(CCC#N)c2N=C(c2ccccc2F)N1C (stereo not drawn) here?
The inhibition was inactive: 1.9%.

Which inhibition does the source give for O=P(Nc1nccs1)(Oc1ccccc1)Oc1ccccc1 here?
Its inhibition is inactive: 9.9%.

O=P(Nc1nccs1)(c1ccccc1)c1nc2ccccc2s1 (stereo not drawn) was tested. Which inhibition did it give?
Its inhibition is inactive: 44.8%.

With O=C(O)COc1ccc([As](=O)(O)O)cc1[N+](=O)[O-] as the compound, how does the inhibition read?
Its inhibition is inactive: -1.1%.

Which inhibition does the source give for Nc1ccccc1[As](=O)(O)c1ccccc1 here?
Its inhibition is inactive: 7%.

NC(=O)Nc1ccc([As](=O)(O)O)cc1 was tested. Which inhibition did it give?
Its inhibition is inactive: -6.2%.

For CCOP1(=S)c2c(C)nn(CCC#N)c2N=C(c2ccc(F)cc2)N1C (stereo not drawn), which inhibition is on record?
The inhibition was inactive: -3.1%.

How did the inhibition turn out when CN(C(=O)Cc1ccccc1)[C@@H]1CC[C@]2(CCCO2)C[C@H]1N1CCCC1 was run?
The inhibition was inactive: 15.9%.

Which inhibition does the source give for O=[N+]([O-])c1ccc2c(c1)nnn2O here?
The inhibition was inactive: 3.1%.

CC1=NCCc2c1[nH]c1ccccc21.O=[N+]([O-])c1cc([N+](=O)[O-])c(O)c([N+](=O)[O-])c1 was tested. Which inhibition did it give?
Its inhibition is inactive: 0.2%.

With O=C(OC1CN2CCC1CC2)c1ccc(Cl)cc1 (stereo not drawn) as the compound, how does the inhibition read?
The inhibition was inactive: 6.1%.

For O=[As](O)(O)c1cccnc1, which inhibition is on record?
Its inhibition is inactive: 7.5%.

How did the inhibition turn out when COc1cc(C(=O)NCC2(N3CCOCC3)CCCCC2)cc(Cl)c1OC(C)C was run?
Its inhibition is inactive: -7.1%.

With CS(=O)(=O)c1ccc(Cl)c(NC(=O)COC(=O)C(O)(c2ccccc2)c2ccccc2)c1 as the compound, how does the inhibition read?
Its inhibition is inactive: -3.4%.

With COc1ccccc1OP(C)(=O)Nc1cccc(Br)c1 (stereo not drawn) as the compound, how does the inhibition read?
Its inhibition is inactive: 2.5%.

Which inhibition does the source give for Cc1cccc(OCC(=O)OC2CN3CCC2CC3)c1 (stereo not drawn) here?
Its inhibition is inactive: 0.6%.

Which inhibition does the source give for O=[As](O)(c1cccc(O)c1)c1cccc(O)c1 here?
Its inhibition is inactive: -3%.

With Cc1cc(C)cc(OP(C)(=O)Nc2ccc(C)cc2C)c1 (stereo not drawn) as the compound, how does the inhibition read?
Its inhibition is inactive: -4.7%.

How did the inhibition turn out when CCOC(=O)c1ccc(NP(C)(=O)Oc2cc(C)cc(C)c2)cc1 (stereo not drawn) was run?
Its inhibition is inactive: -7.2%.

How did the inhibition turn out when Cc1cc(C)cc(OP(C)(=O)Nc2ccccn2)c1 (stereo not drawn) was run?
The inhibition was inactive: -1.9%.

For CP(=O)(Nc1cccc(Br)c1)Oc1ccccc1 (stereo not drawn), which inhibition is on record?
Its inhibition is inactive: 11.8%.

How did the inhibition turn out when Cc1ccc(NCCc2c([N+](=O)[O-])cc([N+](=O)[O-])cc2[N+](=O)[O-])cc1 was run?
Its inhibition is inactive: -6.4%.

Which inhibition does the source give for Cc1ccc(C)c(NP(C)(=O)Oc2ccccc2)c1 (stereo not drawn) here?
The inhibition was inactive: 0.8%.

CCCOP(=S)(Nc1nc(N)cc(=O)[nH]1)OCCC was tested. Which inhibition did it give?
The inhibition was inactive: 8%.

With CCOP(=O)(Nc1cccc2ccccc12)OCC as the compound, how does the inhibition read?
Its inhibition is inactive: -1.1%.

For O=P1(Nc2nc3ccc(Cl)cc3s2)COc2ccccc2O1 (stereo not drawn), which inhibition is on record?
Its inhibition is inactive: 9.4%.

How did the inhibition turn out when CCOc1ccc(C2=NCC(CBr)S2)cc1 (stereo not drawn) was run?
Its inhibition is inactive: -23.1%.

How did the inhibition turn out when CC(C)(C)C(=O)NC(Sc1ccccc1)C(Cl)(Cl)Cl (stereo not drawn) was run?
Its inhibition is inactive: 82.4%.

For CC(C)c1ccc(OP(C)(=O)Nc2ccc(SC(F)(F)F)cc2)cc1 (stereo not drawn), which inhibition is on record?
Its inhibition is inactive: -1.8%.

How did the inhibition turn out when CP(=O)(Nc1ccccc1F)Oc1ccccc1 (stereo not drawn) was run?
The inhibition was inactive: 12.8%.

O=C(OCCN1CCN(CCOCc2ccccc2)CC1)C(O)(c1ccccc1)c1ccccc1 was tested. Which inhibition did it give?
The inhibition was inactive: 4.4%.

With C[C@H]1OP(=O)(Oc2ccccc2)C[C@@H]2O[C@@H]21 (stereo partly drawn) as the compound, how does the inhibition read?
Its inhibition is inactive: -0.9%.

Which inhibition does the source give for C[C@@H]1C=CCP(=O)(Oc2ccccc2)O1 (stereo partly drawn) here?
The inhibition was inactive: -5.4%.

How did the inhibition turn out when CC(=O)c1ccc(N2CC2c2ccncc2)cc1 (stereo not drawn) was run?
Its inhibition is inactive: 0.8%.

Which inhibition does the source give for O=C(OC1CN2CCC1CC2)c1ccc([N+](=O)[O-])cc1 (stereo not drawn) here?
The inhibition was inactive: 7.7%.

For CC(=O)Nc1ccc([As](=O)(O)O)c(O)c1, which inhibition is on record?
The inhibition was inactive: -8.9%.

With COc1ccc2c(c1O)-c1c(O)c(OC)cc3c1[C@H](C2)[N+](C)(C)CC3.O=[N+]([O-])c1cc([N+](=O)[O-])c([O-])c([N+](=O)[O-])c1[O-] as the compound, how does the inhibition read?
Its inhibition is inactive: 31.3%.

Which inhibition does the source give for CC(=O)Nc1ccc(Oc2c([N+](=O)[O-])cc([N+](=O)[O-])cc2[N+](=O)[O-])cc1 here?
Its inhibition is inactive: 17.9%.

With c1ccc(-c2nn[nH]n2)c(-c2nn[nH]n2)c1 as the compound, how does the inhibition read?
Its inhibition is inactive: -1%.

For CCOC(=O)NC(Sc1ccccc1)C(Cl)(Cl)Cl (stereo not drawn), which inhibition is on record?
The inhibition was inactive: 0.5%.

For Cc1ccc(NP(=O)(Oc2cccc(C)c2)Oc2cccc(C)c2)nc1, which inhibition is on record?
The inhibition was inactive: 6.8%.

For O=C(NC1CCS(=O)(=O)C1)NP(=S)(Oc1ccccc1)Oc1ccccc1 (stereo not drawn), which inhibition is on record?
Its inhibition is inactive: 19.4%.

Which inhibition does the source give for CCNC(=S)/N=C(\N)N[N+](=O)[O-] here?
Its inhibition is inactive: 5.8%.

COc1ccc(OP(C)(=O)Nc2ccc(SC(F)(F)F)cc2)cc1 (stereo not drawn) was tested. Which inhibition did it give?
Its inhibition is inactive: 82.4%.

CCOC(=O)c1ccc(NP(C)(=O)Oc2ccc(F)cc2)cc1 (stereo not drawn) was tested. Which inhibition did it give?
Its inhibition is inactive: 0.9%.

O=C(OC1CN2CCC1CC2)c1ccccc1 (stereo not drawn) was tested. Which inhibition did it give?
The inhibition was inactive: -10.5%.

How did the inhibition turn out when CCC(=O)N1C2C3N(C(=O)CC)C1C1N(C(=O)CC)C(C(N1C(=O)CC)N3C(=O)CC)N2C(=O)CC was run?
Its inhibition is inactive: 2.3%.

CCN(CC)CCCOC(=O)C(O)(c1ccccc1)C1CCCCC1 (stereo not drawn) was tested. Which inhibition did it give?
Its inhibition is inactive: -7.8%.

Which inhibition does the source give for COC(=O)c1cc2c(s1)N=C(c1ccccc1)N(C)P2(=O)N1CCOCC1 (stereo not drawn) here?
Its inhibition is inactive: -4.5%.

Cc1ccc(OP(=O)(Nc2ccccn2)Oc2ccc(C)cc2)cc1 was tested. Which inhibition did it give?
Its inhibition is inactive: -4.9%.

Which inhibition does the source give for CC(=O)NC(SC(=S)N(CC(C)C)CC(C)C)C(Cl)(Cl)Cl (stereo not drawn) here?
The inhibition was inactive: 1.9%.
